Measured affinities in a library of Ab-14 heavy chain variants

Reference: Li et al. 2023, doi:10.1038/s41467-023-39022-2. File: FLAb, binding data.

All variants were tested on one target, the spike HR2 peptide PDVDLGDISGINAS (SARS-CoV-2).

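The parent was found by panning a naive human phage display library on the peptide. Designed CDR sequences, proposed from the first random library and measured here. Their group label is 14H_En_Gibbs (En: ensemble of fine-tuned language models; Gibbs: Gibbs sampling). Affinity was read by AlphaSeq, a pooled yeast mating assay with surface-displayed partners. Mating (16 h, 30 °C) was followed by selection of diploids and sequencing of their barcodes. Each replicate has its own calibration line, from reference interactions of the BCL2 family. Each pool was mated in six replicate cultures.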

Ab-14 is the parent antibody, in scFv form: VH, then the linker GGGGSGGGGSGGGGS, then VL. The light chain is unchanged in all variants.
VH: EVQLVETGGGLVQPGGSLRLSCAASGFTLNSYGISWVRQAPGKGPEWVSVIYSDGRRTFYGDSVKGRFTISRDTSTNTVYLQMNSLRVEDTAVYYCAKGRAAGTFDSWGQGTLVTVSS
VL: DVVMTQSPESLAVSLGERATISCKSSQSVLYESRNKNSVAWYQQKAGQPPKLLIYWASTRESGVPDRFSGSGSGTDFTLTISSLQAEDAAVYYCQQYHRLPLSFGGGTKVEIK

Each variant's VH is given in full.
Affinities are written as log10 Kd with Kd in nM; a lower number is a better binder.
A mean of the replicates is given; it leaves out those without a signal.
"ND" marks a missing value. The strain was present, yet no cells mated with the target were sequenced in that replicate, which points to weak or no binding.
The authors' rule: three or more of the six replicates give a measured affinity, fewer mean a poor binder.
Values of this round are not directly comparable with the first-round values of the same sequences.
Nonspecific signal, from three strains lacking the peptide, appeared in 1% of pairings of all heavy chain designs, centred on 2.08 (5% of these signals below 0.84); values are not corrected for it. The control count says in how many pairings with the empty strains this scFv gave a signal, with their mean in brackets.
Of ten entries with the parent sequence, four were seen in most replicates (averages 0.34 to 2.37), three in one and three in none, so single entries are noisy.

VH	log10 Kd (nM) by replicate	mean log10 Kd (nM)	empty controls
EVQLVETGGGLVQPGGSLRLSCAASGFNIQDYGISWVRQAPGKGPEWVSVIYADGSRTAYAEPVKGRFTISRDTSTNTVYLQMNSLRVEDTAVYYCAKGNIGGTISTWGQGTLVTVSS	ND / ND / ND / ND / ND / ND	ND	0/18
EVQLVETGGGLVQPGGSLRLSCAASGADLNEYGISWVRQAPGKGPEWVSVIYADGDRKAFQDDVKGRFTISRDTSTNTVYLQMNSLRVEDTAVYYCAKGTNAGDFDEWGQGTLVTVSS	1.61 / 1.82 / 2.23 / 2.08 / 1.56 / 1.63	1.82	1/18 (2.31)
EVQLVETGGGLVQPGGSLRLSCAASGFGMEEYGISWVRQAPGKGPEWVSVIYADGQRNAYADEVKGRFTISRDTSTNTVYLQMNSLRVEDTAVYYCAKGENAGIFDIWGQGTLVTVSS	ND / ND / 2.14 / ND / 0.79 / 0.91	1.28	0/18
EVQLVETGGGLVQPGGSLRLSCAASGFQLDEVGISWVRQAPGKGPEWVSVIYADGARTAYKSKVKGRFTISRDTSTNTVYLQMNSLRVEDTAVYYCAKGGNGDKFDIWGQGTLVTVSS	ND / ND / ND / ND / ND / ND	ND	0/18
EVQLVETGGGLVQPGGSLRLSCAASGDNLDEYGISWVRQAPGKGPEWVSVIYADGQRTAYSDPVKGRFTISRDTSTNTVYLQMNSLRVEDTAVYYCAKGEFTVTVGKWGQGTLVTVSS	2.12 / ND / 2.12 / ND / ND / ND	2.12	0/18
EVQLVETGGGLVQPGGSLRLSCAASGFDLLEYGISWVRQAPGKGPEWVSVIYADGSRVAYANNVKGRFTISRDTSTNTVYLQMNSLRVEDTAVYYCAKGKNNAIGSNWGQGTLVTVSS	ND / ND / ND / ND / ND / ND	ND	0/18
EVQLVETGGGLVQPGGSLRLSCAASGFILDEYGISWVRQAPGKGPEWVSVIYADGQRSAYKDSVKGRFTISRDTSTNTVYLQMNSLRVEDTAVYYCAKGVDDATGFIWGQGTLVTVSS	ND / ND / ND / ND / ND / ND	ND	0/18
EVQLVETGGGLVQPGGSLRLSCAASGFNLNEYGISWVRQAPGKGPEWVSVIYADGQRTKYIDDVKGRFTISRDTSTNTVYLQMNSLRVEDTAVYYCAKGTNRVKGMGWGQGTLVTVSS	ND / ND / ND / ND / ND / ND	ND	0/18
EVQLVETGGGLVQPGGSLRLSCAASGFNLDEYGISWVRQAPGKGPEWVSVIYADGQRTAYAKHVKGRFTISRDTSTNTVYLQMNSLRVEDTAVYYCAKGTGGMKRVVWGQGTLVTVSS	ND / ND / ND / ND / ND / ND	ND	0/18
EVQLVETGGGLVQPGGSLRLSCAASGFDLDEYGVSWVRQAPGKGPEWVSVIYADGERTFYADKVKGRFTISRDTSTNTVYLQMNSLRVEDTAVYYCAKGTHGGTRDIWGQGTLVTVSS	ND / ND / ND / ND / ND / ND	ND	0/18
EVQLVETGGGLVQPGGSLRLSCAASGFDIDEMGISWVRQAPGKGPEWVSVIYADGVRQAYKNNVKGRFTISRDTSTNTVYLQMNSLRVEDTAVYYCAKGKNVGLSALWGQGTLVTVSS	1.48 / 0.84 / 1.05 / 1.04 / 1.43 / 1.50	1.22	1/18 (3.42)
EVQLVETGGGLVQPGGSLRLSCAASGFDLDEYGISWVRQAPGKGPEWVSVIYADGMRSAIRESVKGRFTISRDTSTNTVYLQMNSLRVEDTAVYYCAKGEISGTLDAWGQGTLVTVSS	0.61 / 0.70 / 0.68 / 0.55 / 0.71 / 0.80	0.68	0/18
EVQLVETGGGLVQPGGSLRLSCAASGFNLDEYGISWVRQAPGKGPEWVSVIYADGARTAYTNKVKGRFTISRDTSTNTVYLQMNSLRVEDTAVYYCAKGGNWMISVTWGQGTLVTVSS	ND / ND / ND / ND / ND / ND	ND	0/18
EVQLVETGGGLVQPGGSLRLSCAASGFDLDEYGVSWVRQAPGKGPEWVSVIYADGIRTKYADSVKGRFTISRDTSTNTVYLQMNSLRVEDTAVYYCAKGEVGVFYFQWGQGTLVTVSS	ND / ND / ND / ND / ND / ND	ND	0/18
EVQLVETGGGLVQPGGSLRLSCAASGYDLDDYGISWVRQAPGKGPEWVSVIYADGKRTSYAESVKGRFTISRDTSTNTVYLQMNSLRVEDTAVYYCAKGNNGGSFMNWGQGTLVTVSS	ND / ND / ND / ND / ND / ND	ND	0/18
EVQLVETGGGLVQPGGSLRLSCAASGFSLDEYGISWVRQAPGKGPEWVSVIYADGLRSKYQDKVKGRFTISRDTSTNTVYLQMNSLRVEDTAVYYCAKGELALSGDTWGQGTLVTVSS	ND / ND / 2.19 / ND / ND / ND	2.19	0/18
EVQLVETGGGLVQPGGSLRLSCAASGKSLDEYGISWVRQAPGKGPEWVSVIYADGSREAYSESFKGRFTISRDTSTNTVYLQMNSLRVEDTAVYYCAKGQLAAIFMLWGQGTLVTVSS	ND / ND / ND / ND / ND / ND	ND	0/18

The closing 2 entries, repeated:

VH	log10 Kd (nM) by replicate	mean log10 Kd (nM)	empty controls
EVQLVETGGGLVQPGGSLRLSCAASGFSLDEYGISWVRQAPGKGPEWVSVIYADGLRSKYQDKVKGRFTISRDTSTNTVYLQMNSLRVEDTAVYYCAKGELALSGDTWGQGTLVTVSS	ND / ND / 2.19 / ND / ND / ND	2.19	0/18
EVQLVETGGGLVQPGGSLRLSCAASGKSLDEYGISWVRQAPGKGPEWVSVIYADGSREAYSESFKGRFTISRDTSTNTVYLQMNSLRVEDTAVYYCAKGQLAAIFMLWGQGTLVTVSS	ND / ND / ND / ND / ND / ND	ND	0/18